Two molecules from PubChem BioAssay AID680 (PCMD, 2007) can be followed below.

Chains of the proteins cited; added tags and fusions are not shown. Residues count along the entry.
UniProt P03951, 19-387 limits assumed: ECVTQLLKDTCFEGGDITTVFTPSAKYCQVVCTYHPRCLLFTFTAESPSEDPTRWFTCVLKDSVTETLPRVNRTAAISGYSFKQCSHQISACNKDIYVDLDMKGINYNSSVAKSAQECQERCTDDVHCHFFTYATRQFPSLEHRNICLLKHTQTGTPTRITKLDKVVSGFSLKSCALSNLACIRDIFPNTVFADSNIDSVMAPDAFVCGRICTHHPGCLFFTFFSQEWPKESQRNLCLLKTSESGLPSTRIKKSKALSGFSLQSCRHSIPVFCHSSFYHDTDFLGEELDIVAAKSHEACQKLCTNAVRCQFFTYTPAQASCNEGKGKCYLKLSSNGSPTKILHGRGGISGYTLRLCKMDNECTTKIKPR
UniProt P03951, 388-625 limits assumed: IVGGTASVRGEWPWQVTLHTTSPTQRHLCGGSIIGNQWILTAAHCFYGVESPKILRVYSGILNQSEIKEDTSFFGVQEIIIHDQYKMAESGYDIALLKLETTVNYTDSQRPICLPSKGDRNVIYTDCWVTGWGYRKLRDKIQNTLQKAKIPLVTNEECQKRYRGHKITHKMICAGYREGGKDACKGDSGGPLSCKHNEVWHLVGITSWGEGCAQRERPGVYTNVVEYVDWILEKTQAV

One may read the inhibition as the share of the control response that was lost under treatment.

The list shows a part of the results, in another mix than the full data. Some tests of the compounds listed are not included; inactive here does not mean inactive elsewhere. Activity calls are given as the source filed them. Rule as the data show it: active = inhibition above about 20% (passing the limit was not always enough); inactive = the rest.

In the test the target is Coagulation factor XI (Homo sapiens) (UniProt P03951). Briefly: human factor XIa inhibition by mixtures – biochemical, 10-compound mixtures, primary screen (AID 680).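 Also: each value is inhibition by a whole ten-compound pool holding the compound; 0% = enzyme with no mixture and 100% = wells lacking enzyme.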 The following applies: purified FXIa, fluorogenic substrate, pooled mixtures; at 5 µM; active compounds read high.
With `O=C(OC1CN2CCC1CC2)C(CO)(c1ccccc1)c1ccccc1` (configuration not stated), the inhibition is inactive: 6.48%.

On to `CN(C)c1cccc(C(=O)NCC2(N(C)C)CCCCC2)c1`, for which the inhibition was inactive: 11.2%.
